Experimental findings from ChEMBL document CHEMBL1146270, “Identification of potent and selective TACE inhibitors via the S1 pocket” (Bioorg Med Chem Lett, 2007) are described below.

Protein sequences, listed by entry. Tags and fused reporters are not part of them. Lines headed by an entry give the natural chain unless they say otherwise; changes in a name come on top.
UniProt P78536: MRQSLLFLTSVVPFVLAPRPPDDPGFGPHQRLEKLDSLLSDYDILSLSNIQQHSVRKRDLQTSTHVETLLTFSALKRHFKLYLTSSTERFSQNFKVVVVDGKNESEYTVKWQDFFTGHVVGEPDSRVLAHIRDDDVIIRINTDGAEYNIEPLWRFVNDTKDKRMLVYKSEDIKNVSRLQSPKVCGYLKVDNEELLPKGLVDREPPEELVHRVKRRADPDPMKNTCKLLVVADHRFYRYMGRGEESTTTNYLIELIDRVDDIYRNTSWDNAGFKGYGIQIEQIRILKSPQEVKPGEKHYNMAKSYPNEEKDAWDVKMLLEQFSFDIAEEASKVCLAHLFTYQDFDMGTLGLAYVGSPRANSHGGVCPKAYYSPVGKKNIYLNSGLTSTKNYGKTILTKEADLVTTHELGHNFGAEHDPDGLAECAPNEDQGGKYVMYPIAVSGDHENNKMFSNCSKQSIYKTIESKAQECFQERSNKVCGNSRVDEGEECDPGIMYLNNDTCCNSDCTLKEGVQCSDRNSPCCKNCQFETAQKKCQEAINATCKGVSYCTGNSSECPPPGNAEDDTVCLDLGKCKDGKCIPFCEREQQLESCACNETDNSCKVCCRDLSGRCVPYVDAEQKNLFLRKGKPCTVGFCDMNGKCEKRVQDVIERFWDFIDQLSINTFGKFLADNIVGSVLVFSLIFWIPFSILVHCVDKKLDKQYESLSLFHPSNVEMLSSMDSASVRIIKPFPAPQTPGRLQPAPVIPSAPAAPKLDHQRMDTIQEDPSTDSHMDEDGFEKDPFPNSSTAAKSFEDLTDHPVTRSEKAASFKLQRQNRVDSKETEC
UniProt P14780: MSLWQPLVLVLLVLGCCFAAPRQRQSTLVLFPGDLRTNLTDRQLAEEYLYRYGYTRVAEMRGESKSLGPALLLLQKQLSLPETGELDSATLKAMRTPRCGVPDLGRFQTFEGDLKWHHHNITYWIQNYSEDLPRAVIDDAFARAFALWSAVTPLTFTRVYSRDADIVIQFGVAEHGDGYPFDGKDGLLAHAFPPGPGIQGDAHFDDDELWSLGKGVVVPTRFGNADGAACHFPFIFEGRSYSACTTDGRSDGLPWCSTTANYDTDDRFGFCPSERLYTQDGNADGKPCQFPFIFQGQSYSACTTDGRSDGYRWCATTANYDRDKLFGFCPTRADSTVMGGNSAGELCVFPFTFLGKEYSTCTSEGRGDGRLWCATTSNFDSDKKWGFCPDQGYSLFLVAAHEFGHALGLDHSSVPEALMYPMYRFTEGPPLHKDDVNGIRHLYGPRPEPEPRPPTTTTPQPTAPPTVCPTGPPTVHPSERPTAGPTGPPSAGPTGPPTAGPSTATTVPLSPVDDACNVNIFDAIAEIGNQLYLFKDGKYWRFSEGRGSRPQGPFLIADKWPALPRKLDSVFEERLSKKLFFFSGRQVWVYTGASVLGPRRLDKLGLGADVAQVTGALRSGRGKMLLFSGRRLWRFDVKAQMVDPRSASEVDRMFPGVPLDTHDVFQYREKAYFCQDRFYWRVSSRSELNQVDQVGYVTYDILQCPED

pIC50: −log10 of the molar value.

Assay [1] deals with Disintegrin and metalloproteinase domain-containing protein 17 (Homo sapiens, UniProt P78536). The experiment in a line: Inhibition of TACE.
Assay [2] has as its target Matrix metalloproteinase-9 (Homo sapiens, UniProt P14780). The assay can be described thus: Inhibition of MMP9.
The target in a further assay is Collagenase 3 (Homo sapiens, UniProt P45452).

Consider `CC#CCOc1ccc(S(=O)(=O)CC2(C(=O)NO)CCN(S(=O)(=O)c3c(C)noc3C)CC2)cc1`, for which the pIC50 in assay [1] is 8.66.

With `CC#CCOc1ccc(S(=O)(=O)N2CCSC(C)(C)C2C(=O)NO)cc1` (stereo not drawn), the pIC50 in assay [2] was 7.15; against Collagenase 3, 8.05.
